Experiment: Clinical phase 2 studies in PNH, IgAN, C3G
Format: in vivo, human
Settings: 200 mg b.i.d., all tested indications (PNH, IgAN, C3G)

In the case of `CCO[C@H]1CCN(Cc2c(OC)cc(C)c3[nH]ccc23)[C@H](c2ccc(C(=O)O)cc2)C1` [iptacopan], the safety concerns is reported as “without any safety concerns”.

Reference: patent US20240398779A1, “USE OF FACTOR B INHIBITORS FOR THE TREATMENT OF AGE-RELATED MACULAR DEGENERATION” (priority 2021, published 2024)
